These results are taken from article PMC5469451, “Identification of compounds that suppress Toxoplasma gondii tachyzoites and bradyzoites” (PLoS ONE, 2017).

Each structure is given as a SMILES string.

Assay [1] deals with RH-2F tachyzoites (type I strain) in HFF cells. Kind of assay: Confirmatory screening: RH-2F β-galactosidase growth assay in HFF cells. Format: cell-based. Conditions: Toxoplasma gondii, 48 h, read-out: Parasite inhibition (%). As to the method:
In the confirmatory screening, we utilize an RH strain β-galactosidase reporter parasite termed RH-2F (a type I strain). Briefly, RH-2F parasites were purified from freshly lysed infected host cells and used to infect confluent HFF cells cultured in 96-well plates. Five hundred parasites were added to each well, along with each test compound and 50 μL of culture medium. Plates were then incubated for 10 min at room temperature followed by an incubation at 37°C for 48 h in a CO2 incubator.
To measure the effects of tanshinone IIA and hydroxyzine on intracellular parasite growth, parasites were allowed to invade for 2 h, uninvaded parasites were washed away, and medium with compounds was added. After 48 h, the plates were frozen at -80°C. Plates were then thawed just prior to the measurement of beta-galactosidase activity. Beta-Glo (Promega) was used to measure β-galactosidase activity following the manufacturer’s instructions.

Assay [2] concerns PLK/DLUC_1C9 tachyzoites in Vero cells. As to the kind of experiment: Primary screening: T. gondii growth assay, Renilla luciferase. Format: cell-based. To be noted: Toxoplasma gondii, 48 h, read-out: Parasite Inhibition (%). As to the method:
In the primary screening, purified PLK/DLULC_1C9 tachyzoites were incubated with Vero cells at a multiplicity of infection (MOI) of 0.5. After a 2-h incubation, the infected host cells were trypsinized to obtain a cell suspension and then these suspended infected cells were inoculated into 96-well optical bottom plates containing the compound library. Each well was inoculated with 2500 cells in 25 μL of culture medium. […] Following cell inoculation, each well therefore contained 0.5% DMSO and 10 μM compound. After 48 h of culture, Renilla luciferase activity was measured by using Renilla-Glo (Promega, WI, USA) following the manufacturer’s instructions. […] The Z’-value for each plate was calculated from the Renilla luciferase activity in the negative and positive control wells.

By inhibition is commonly meant the relative decrease from the control value, in per cent. Regarding `OCCN1CCN(CCCN2c3ccccc3Sc3ccc(C(F)(F)F)cc32)CC1` [FLUPHENAZINE], in assay [1], the inhibition at 2.5 µM stood at 19% and the inhibition at 25 µM came to 111%. The inhibition at 10 µM in assay [2] amounted to 103%.
